Earlier results, collected in publication PMC4234442 (Journal of Medicinal Chemistry, 2014).

Amino acid sequences for entries named in this document (tags omitted). A change or cut given only in a name is not applied to a line headed by its entry.
UniProt Q9Y5X5: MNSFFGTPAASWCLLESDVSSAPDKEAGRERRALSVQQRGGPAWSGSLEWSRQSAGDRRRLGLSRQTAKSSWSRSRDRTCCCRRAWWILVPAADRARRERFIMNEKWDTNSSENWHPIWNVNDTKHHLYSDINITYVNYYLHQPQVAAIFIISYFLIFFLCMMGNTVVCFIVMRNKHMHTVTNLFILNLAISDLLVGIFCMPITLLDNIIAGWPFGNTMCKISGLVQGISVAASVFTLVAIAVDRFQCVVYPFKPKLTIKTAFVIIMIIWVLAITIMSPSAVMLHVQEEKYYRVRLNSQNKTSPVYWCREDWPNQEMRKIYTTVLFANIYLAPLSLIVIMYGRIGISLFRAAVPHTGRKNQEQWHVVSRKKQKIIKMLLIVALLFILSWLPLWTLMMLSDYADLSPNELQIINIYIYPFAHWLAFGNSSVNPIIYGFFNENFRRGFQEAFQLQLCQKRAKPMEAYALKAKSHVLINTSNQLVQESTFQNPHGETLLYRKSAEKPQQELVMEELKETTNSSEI

Target: NPFF2-R (Homo sapiens, UniProt Q9Y5X5)
Conditions: read-out: Ki in CHO hNPFF2-R; cited from earlier work

For FLFQPQRFa [NPFF], the Ki is listed as 0.34 nM.
